Measured values reported in patent US20170095435A1, “AGENT FOR THE TREATMENT AND PREVENTION OF AUTISM SPECTRUM DISORDERS” (published 2017).

Tests used:
Balb/C mice [1] = assay: olfactory habituation/dishabituation test; conditions: for Response to the olfactory stimulus of Balb/C mice: 10-mg/kg i.p. once; for Response to Olfactory Stimuli of Balb/C mice: Table 5, Glycine mg/kg (dose not given)
Balb/C mice [2] = assay: learning and replicating the spatial skill in the Morris water maze
Balb/C mice [3] = assay: learning and replicating the spatial skill after spatial reversal (relearning) in the Morris water maze
[4] = after spatial reversal, 10-mg/kg, over 6 days

Structure (SMILES): NCC(=O)O
- effectiveness in the olfactory experiment (Balb/C mice [1]; 10-mg/kg, single administration): not very effective
- Response to the olfactory stimulus of Balb/C mice (Balb/C mice [1]; C57B1/6 mice odor, exposure 1): 10.8 ± 0.9 units
- Response to the olfactory stimulus of Balb/C mice (Balb/C mice [1]; C57B1/6 mice odor, exposure 2): 5.0 ± 0.7 units
- Response to the olfactory stimulus of Balb/C mice (Balb/C mice [1]; C57B1/6 mice odor, exposure 3): 2.2 ± 0.5 units
- Response to the olfactory stimulus of Balb/C mice (Balb/C mice [1]; Lemon, exposure 1): 5.8 ± 0.5 units
- Response to the olfactory stimulus of Balb/C mice (Balb/C mice [1]; Lemon, exposure 2): 2.6 ± 0.6 units
- Response to the olfactory stimulus of Balb/C mice (Balb/C mice [1]; Lemon, exposure 3): 1.0 ± 0.3 units
- Response to Olfactory Stimuli of Balb/C mice (Balb/C mice [1]; Lemon, exposure 1): 5.9 ± 0.6 units
- Response to Olfactory Stimuli of Balb/C mice (Balb/C mice [1]; Lemon, exposure 2): 2.5 ± 0.5 units
- Response to Olfactory Stimuli of Balb/C mice (Balb/C mice [1]; Lemon, exposure 3): 1.0 ± 0.3 units
- Response to Olfactory Stimuli of Balb/C mice (Balb/C mice [1]; Odor of C57B1/6 mice, exposure 1): 10.6 ± 0.9 units
- Response to Olfactory Stimuli of Balb/C mice (Balb/C mice [1]; Odor of C57B1/6 mice, exposure 2): 5.2 ± 0.8 units
- Response to Olfactory Stimuli of Balb/C mice (Balb/C mice [1]; Odor of C57B1/6 mice, exposure 3): 2.1 ± 0.5 units
- Response to Olfactory Stimuli of Balb/C mice (Balb/C mice [1]; Water, exposure 1): 10.1 ± 0.8 units
- Response to Olfactory Stimuli of Balb/C mice (Balb/C mice [1]; Water, exposure 2): 6.1 ± 0.8 units
- Response to Olfactory Stimuli of Balb/C mice (Balb/C mice [1]; Water, exposure 3): 4.0 ± 0.9 units
- Response to the olfactory stimulus of Balb/C mice (Balb/C mice [1]; Water, exposure 1): 10.2 ± 0.9 units
- Response to the olfactory stimulus of Balb/C mice (Balb/C mice [1]; Water, exposure 2): 6.2 ± 0.9 units
- Response to the olfactory stimulus of Balb/C mice (Balb/C mice [1]; Water, exposure 3): 4.0 ± 1.0 units
- habituation to olfactory stimuli as compared to the control Balb/C animals (Balb/C mice [1]; nanolycine 1- and 10-mg/kg, nanodiamond, glycine 10-mg/kg, Triftazin 0.5 mg/kg): faster
- Replication: Time in the platform quadrant (Balb/C mice [2]; 10-mg/kg, over 6 days): 15.0 ± 5.2 s
- Training: Number of effective attempts, 1 day (Balb/C mice [2]; 10-mg/kg, over 6 days): 0.8 ± 0.3 units
- Training: Number of effective attempts, 2 day (Balb/C mice [2]; 10-mg/kg, over 6 days): 1.7 ± 0.6 units
- Training: Time of searching for the platform, 1 day (Balb/C mice [2]; 10-mg/kg, over 6 days): 54.5 ± 1.8 s
- Training: Time of searching for the platform, 2 day (Balb/C mice [2]; 10-mg/kg, over 6 days): 51.3 ± 3.2 s
- difference from the linear (control Balb/C) mice on the first day of training (Balb/C mice [2]; nanolycine 1- and 10-mg/kg, nanodiamond, glycine, Triftazin): didn't show any statistically significant difference
- impact on the replication of the newly acquired skill (Balb/C mice [3]; Triftazin 0.5 mg/kg, glycine 10-mg/kg, nanolycine 10-mg/kg): did not make any impact
- Replication: Time in the platform quadrant (Balb/C mice [3]; [4]): 8.2 ± 2.9 s
- Training: Number of effective attempts, 1 day (Balb/C mice [3]; [4]): 1.0 ± 0.3 units
- Training: Number of effective attempts, 2 day (Balb/C mice [3]; [4]): 1.0 ± 0.4 units
- Training: Time of searching for the platform, 1 day (Balb/C mice [3]; [4]): 51.9 ± 2.6 s
- Training: Time of searching for the platform, 2 day (Balb/C mice [3]; [4]): 56.5 ± 1.5 s
- difference from the control group in both recorded parameters on the first and second day of retraining (Balb/C mice [3]; nanolycine 1-mg/kg, nanodiamond, glycine, Triftazin): did not show any statistically significant difference
